Legend:
[1] = target: T1, Acetylcholinesterase (Anopheles gambiae, UniProt Q869C3); test: Inhibition of recombinant Anopheles gambiae wild type AChE after 10 mins by Ellman assay
[2] = target: T1, Acetylcholinesterase; test: Inhibition of recombinant Anopheles gambiae wild type AChE after 60 mins by Ellman assay

Chains of the proteins cited; added tags and fusions are not shown. Lines headed by an entry give the natural chain unless they say otherwise; changes in a name come on top.
UniProt Q869C3: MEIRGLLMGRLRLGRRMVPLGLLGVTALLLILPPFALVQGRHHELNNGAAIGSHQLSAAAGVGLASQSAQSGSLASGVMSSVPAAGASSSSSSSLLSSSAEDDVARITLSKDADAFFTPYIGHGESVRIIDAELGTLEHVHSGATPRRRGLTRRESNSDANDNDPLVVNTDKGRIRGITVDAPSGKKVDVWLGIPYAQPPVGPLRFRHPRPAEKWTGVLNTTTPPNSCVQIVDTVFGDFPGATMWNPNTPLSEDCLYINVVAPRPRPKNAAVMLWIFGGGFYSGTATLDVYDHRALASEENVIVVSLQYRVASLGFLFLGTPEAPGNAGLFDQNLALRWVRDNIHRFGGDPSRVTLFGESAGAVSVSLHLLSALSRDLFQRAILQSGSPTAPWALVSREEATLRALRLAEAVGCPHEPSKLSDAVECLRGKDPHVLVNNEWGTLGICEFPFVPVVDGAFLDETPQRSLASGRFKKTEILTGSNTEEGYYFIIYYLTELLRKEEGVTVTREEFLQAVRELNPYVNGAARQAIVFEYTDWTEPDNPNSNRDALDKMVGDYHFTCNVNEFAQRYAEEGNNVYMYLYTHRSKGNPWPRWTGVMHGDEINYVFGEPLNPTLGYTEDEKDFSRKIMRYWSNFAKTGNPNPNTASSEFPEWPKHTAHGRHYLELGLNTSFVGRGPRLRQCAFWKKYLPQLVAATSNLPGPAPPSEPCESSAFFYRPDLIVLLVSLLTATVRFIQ

With CC(C)(C)c1cccc(C(=O)CF)c1 the IC50 [1] was 726 nM and the IC50 [2] was 953 nM.

— ChEMBL document CHEMBL3621126, “Difluoromethyl ketones: Potent inhibitors of wild type and carbamate-insensitive G119S mutant Anopheles gambiae acetylcholinesterase” (Bioorg Med Chem Lett, 2015)
